From PubChem
Yeast UUG start-1 – modulators of start codon recognition fidelity in yeast; AID 602363; hit rate 0.13% among 350,000; activity score, % at 18.7 µM; S. cerevisiae UUG-firefly luciferase reporter, luminescence/redox ratio;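 active = replicate mean at a twofold rise or more, about +100% in these data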;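 note: firefly luciferase made from a UUG start codon reports start codon fidelity; reporter light over untreated wells divided by growth signal over untreated wells; some hits fall short of that in this replicate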
Wnt bcat act – Wnt/beta-catenin pathway activators, primary screen, cell-based, plate reader, single point. Wnt/beta-catenin reporter cell assay, activator. activation, % at 9.35 µM. 1.2% of 300,000 active. AID 743398, 2014; in the data active = activation above about 30%, passing the limit was not always enough;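 note: 0% = neutral control wells and 100% = positive control wells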
PGC1a acetyl inh – inhibitors of PGC1a acetylation signal, primary screen, cell-based, U2OS, AlphaScreen, inhibitor mode. AlphaScreen anti-acetyl-lysine; with virally co-expressed GCN5 acetyltransferase. inhibition, % at 15.6 µM. 0.17% of 350,000 active;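 active = every replicate shows inhibition of at least 40%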;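 note: 0% = neutral control wells and 100% = positive control wells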
miR122 inh – miR-122 Renilla sensor signal increase in Huh7, primary screen, miR-122 inhibitor project, cell-based, single point, plate reader; Huh7 miR-122 Renilla luciferase sensor, 48 h; neutral wells = 0, positive control = 100; 0.3% of 340,000 active; AID 602342, 2012; activation (reporter increase), % at 12.5 µM;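 active = mean replicate activation score at least 90 and every replicate individually at or above 90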;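 note: higher luciferase means less miR-122 activity so hits act as miR-122 inhibitors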
TRPM1 prom inh – inhibitors of MITF-dependent TRPM1 promoter reporter, primary screen, cell-based, SK-MEL-5, single point, luciferase. SK-MEL-5 TRPM1 promoter luciferase, 24 h. inhibition, % at 12.5 µM. 0.83% of 330,000 active. AID 488899, 2010;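 active = mean inhibition across replicates of 60% or more, whatever share of single replicates reaches that level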
MITF TRPM1 HTS – activators of MITF-driven TRPM1 promoter reporter, primary screen, cell-based, SK-MEL-5, luciferase, single point. activation, % at 12.5 µM. AID 588334, 2011. 0.75% of 300,000 active. SK-MEL-5 TRPM1-promoter luciferase, 24 h; % of positive control, neutral wells = 0;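 active = mean activation of at least 80% with every replicate also reaching 80%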;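 note: 0% = neutral control wells and 100% = parthenolide positive control wells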
Yeast UUG start-2 – enhancers of UUG start codon usage in yeast, dose response, S. cerevisiae, UUG firefly luciferase, cherry-pick, set 2; shares compounds with Yeast UUG start-1; luminescence, 4 h; 100% means double the DMSO signal; activation, % at 38 µM; 540 tested, under 10 active; AID 652061, 2013;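 active = signal increase whose fitted curve reaches an absolute level of 40 at a concentration under 10 µM; inactive = activity opposite to the expected increase, or the rest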
Numbers without * were called inactive; [ ] = another dose, or the depositor's remark. An excerpt weighted towards active compounds, which were near 2.1% of everything screened.

Screening COc1ccc(NC(=O)N(C)C[C@@H]2Oc3cc(-c4ccncc4)ccc3S(=O)(=O)N([C@H](C)CO)C[C@@H]2C)cc1 returned Yeast UUG start-1 172.2*, PGC1a acetyl inh 6.6, miR122 inh -2.6[16.7 µM] and Yeast UUG start-2 inactive.
`COc1ccccc1NC(=O)N(C)C[C@@H]1Oc2cc(Br)ccc2S(=O)(=O)N([C@@H](C)CO)C[C@H]1C` gave Yeast UUG start-1 109.4*, PGC1a acetyl inh -6.3, miR122 inh 3.2[16.7 µM] and Yeast UUG start-2 inactive.
C[C@H](CO)N1C[C@H](C)[C@@H](CN(C)C(=O)Nc2ccccc2F)Oc2cc(Br)ccc2S1(=O)=O was read as Yeast UUG start-1 4.6, Wnt bcat act -0.9, PGC1a acetyl inh -16.2 and miR122 inh 5.8.
Screening Cc1ccccc1-c1ccc2c(c1)O[C@H](CN(C)C(=O)c1ccccn1)[C@@H](C)CN([C@@H](C)CO)S2(=O)=O returned Yeast UUG start-1 -0.1, PGC1a acetyl inh -1.9 and miR122 inh 6.5[16.7 µM].
For COc1ccc(NC(=O)N(C)C[C@@H]2Oc3cc(-c4ccncc4)ccc3S(=O)(=O)N([C@@H](C)CO)C[C@@H]2C)cc1 the results were Yeast UUG start-1 -5.8, PGC1a acetyl inh -9.0 and miR122 inh 11.7[16.7 µM].
For COc1ccc(-c2ccc3c(c2)O[C@H](CN(C)C(=O)c2ccccc2F)[C@H](C)CN([C@@H](C)CO)S3(=O)=O)cc1 the results were Yeast UUG start-1 27.3, PGC1a acetyl inh 2.7 and miR122 inh -10.4[16.7 µM].
CNC(=O)c1ccccc1NC(=O)c1cccc(S(=O)(=O)N2CCC(C)CC2)c1 was read as PGC1a acetyl inh -13.2, miR122 inh 34.2, TRPM1 prom inh 16.5 and MITF TRPM1 HTS -14.1.
CNC(=O)c1ccccc1NC(=O)c1cccc(S(=O)(=O)N2CCCCC2)c1 was read as Yeast UUG start-1 188.3*, Wnt bcat act -2.6, PGC1a acetyl inh 5.3, miR122 inh -3.0, TRPM1 prom inh -1.2, MITF TRPM1 HTS 2.3 and Yeast UUG start-2 -3.0.
Screening C[C@@H]1CN([C@@H](C)CO)C(=O)c2cc(C3=CCCC3)cnc2O[C@H]1CN(C)C(=O)Nc1ccc(F)cc1 returned Yeast UUG start-1 19.9, PGC1a acetyl inh -0.4 and miR122 inh 6.4[16.7 µM].
Cc1cc(-n2c(C)cc(C(=O)CSc3nncn3C)c2C)no1 was read as Yeast UUG start-1 -23.6, Wnt bcat act -1.6, PGC1a acetyl inh -2.8, miR122 inh 1.3, TRPM1 prom inh 2.1 and MITF TRPM1 HTS -0.1.
For Cc1cc(-n2c(C)cc(C(=O)CSc3nncn3C(C)C)c2C)no1 the results were Wnt bcat act -0.5, TRPM1 prom inh -2.1, MITF TRPM1 HTS 5.1 and Yeast UUG start-2 4.4.
Cc1noc(C)c1S(=O)(=O)N1CCCC(C(=O)Nc2cccnc2)C1 (stereo unspecified) was read as Yeast UUG start-1 614.1*, miR122 inh 1.3, TRPM1 prom inh -4.8, MITF TRPM1 HTS 3.3 and Yeast UUG start-2 -4.5.

Among those listed so far, these contain fluorine:
C[C@H](CO)N1C[C@H](C)[C@@H](CN(C)C(=O)Nc2ccccc2F)Oc2cc(Br)ccc2S1(=O)=O was read as Yeast UUG start-1 4.6, Wnt bcat act -0.9, PGC1a acetyl inh -16.2 and miR122 inh 5.8.
For COc1ccc(-c2ccc3c(c2)O[C@H](CN(C)C(=O)c2ccccc2F)[C@H](C)CN([C@@H](C)CO)S3(=O)=O)cc1 the results were Yeast UUG start-1 27.3, PGC1a acetyl inh 2.7 and miR122 inh -10.4[16.7 µM].
Screening C[C@@H]1CN([C@@H](C)CO)C(=O)c2cc(C3=CCCC3)cnc2O[C@H]1CN(C)C(=O)Nc1ccc(F)cc1 returned Yeast UUG start-1 19.9, PGC1a acetyl inh -0.4 and miR122 inh 6.4[16.7 µM].

Next part:
For CC(C)C(=O)Nc1ccc2c(c1)C(=O)N(C)[C@H]1CC[C@H](CC(=O)NCc3ccc(F)cc3)O[C@@H]1CO2 the results were Yeast UUG start-1 -6.6, PGC1a acetyl inh 4.4 and miR122 inh 5.4[16.7 µM].
For COc1ccc2c3c(n(C)c2c1)[C@H](CO)N(Cc1ccc2c(c1)OCO2)CC31CN(C(C)=O)C1 the results were PGC1a acetyl inh -5.2.
For O=C(Nc1nccs1)[C@H]1[C@H](CO)[C@H]2Cn3c(ccc(-c4ccncc4)c3=O)[C@H]2N1CC1CCCC1 the results were Yeast UUG start-1 1.1 and miR122 inh -6.2[16.7 µM].
`CCCc1nc(-c2ccc(-c3ccc(F)cc3)cc2)no1` gave Yeast UUG start-1 -8.8, PGC1a acetyl inh 8.2, miR122 inh -5.7 and TRPM1 prom inh -58.8.
For CCCc1nc(-c2cc3ccccc3[nH]c2=O)no1 the results were Yeast UUG start-1 226.9*, Wnt bcat act 1.9, PGC1a acetyl inh -15.6, miR122 inh -3.0, TRPM1 prom inh -16.1, MITF TRPM1 HTS 17.2 and Yeast UUG start-2 12.7.
Screening O=C(Cn1cc(COc2ccccc2C(F)(F)F)nn1)c1ccc(O)cc1 returned Yeast UUG start-1 140.7*, Wnt bcat act 2.7, miR122 inh 1.3, TRPM1 prom inh -6.4, MITF TRPM1 HTS 5.7 and Yeast UUG start-2 4.4.
COc1cc(C(C)=O)ccc1OCc1cn(CC(=O)c2ccc(O)cc2)nn1 was read as Yeast UUG start-1 156.8*, Wnt bcat act -3.0, miR122 inh 0.4, TRPM1 prom inh 0.4, MITF TRPM1 HTS 0.7 and Yeast UUG start-2 -1.4.
`CC(=O)Nc1ccc(OCc2cn(CC(=O)c3ccc(O)cc3)nn2)cc1` gave Yeast UUG start-1 96.5*, Wnt bcat act -1.0, PGC1a acetyl inh -4.9, miR122 inh 2.3 and Yeast UUG start-2 -6.7.
`O=C(NCC[C@H]1CC[C@@H](NC(=O)Nc2cc(F)ccc2F)[C@@H](CO)O1)Nc1ccc(Cl)cc1` gave Yeast UUG start-1 8.9 and PGC1a acetyl inh -1.2.
Screening CN(C)CCCN1C(=O)[C@@]2(Cc3ccccc31)c1ccccc1C(=O)N(Cc1ccccc1C(F)(F)F)[C@H]2c1ccc(CO)cc1 returned Yeast UUG start-1 172.6*, PGC1a acetyl inh 3.8 and Yeast UUG start-2 inactive.
COCCCN1C(=O)[C@@]2(Cc3ccccc31)c1ccccc1C(=O)N(Cc1ccccc1)[C@H]2c1ccc(CO)cc1 was read as Yeast UUG start-1 169.5*, PGC1a acetyl inh -7.4 and Yeast UUG start-2 inactive.
`CCOC(=O)NNC(=O)C12CC3CC(CC(C3)C1)C2` gave Yeast UUG start-1 488.8*, Wnt bcat act -2.0, PGC1a acetyl inh -4.0, miR122 inh 3.3, TRPM1 prom inh 2.6, MITF TRPM1 HTS -1.9 and Yeast UUG start-2 -10.3.
For O=C(CN1CCOCC1)NCC[C@H]1CC[C@H](NC(=O)Nc2ccc(F)cc2)[C@H](CO)O1 the results were Yeast UUG start-1 184.4*, PGC1a acetyl inh -0.8 and Yeast UUG start-2 inactive.
`O=C(CN1CCOCC1)NCC[C@@H]1CC[C@H](NC(=O)Nc2ccc(Cl)cc2)[C@@H](CO)O1` gave Yeast UUG start-1 119.4*, PGC1a acetyl inh 2.9 and Yeast UUG start-2 inactive.
`CC(C)C#Cc1cnc2c(c1)C(=O)N([C@@H](C)CO)C[C@H](C)[C@@H](CN(C)C(=O)c1ccccn1)O2` gave Yeast UUG start-1 6.2, PGC1a acetyl inh 3.6 and miR122 inh 1.1[16.7 µM].
